# Source: patent US10488416B2, “Targeting breast cancer therapy based on stromal subtypes and CD146 composition” (The Regents of the University of Colorado, a Body Corporate, priority 2014, dated 2019)
# System: MCF-7 cells
# Experiment: MCF-7/fibroblast co-culture proliferation with EGFR inhibition (live cell imaging)
# Type: cell-based, human
# Procedure: For experiments testing estrogen or anti-endocrine effects, estrogen positive cells were grown in phenol red-free media with 5% dextran-coated charcoal-stripped FCS for 1-3 days prior to drug treatments. For hormone therapy, cultures were either supplemented with 10 nM 17-β-estradiol or ethanol vehicle alone. For proliferation experiments, cultures were supplemented with 100 nM 4-hydroxy-tamoxifen (tamoxifen), 10 μM gefitinib or ethanol vehicle control. For conditioned media experiments, estrogen free media was conditioned on a confluent layer of fibroblasts or ER+ epithelial tumor cells for 24 hours. Tumor cells were seeded in 96-well plates at a density of 3,000 cells per well in complete media and allowed to attach for 24 hours. The media was changed to conditioned media (65% conditioned media, 35% fresh estrogen free complete media) supplemented with ethanol vehicle, estrogen or estrogen plus tamoxifen.
# Proliferation was measured by total protein sulforhodamine assay (SRB) or by live cell imaging. Cells were processed for the sulforhodamine B colorimetric (SRB) assay 72 hours after treatment. Briefly, culture media was removed and cells were gently washed 1× with PBS followed by a 30-minute incubation at 4° C. in 10% trichloroacidic acid. Cells were washed 5 times with deionized water and plates were dried for 2 hours. Sulforhodamine B (0.2%) dye was added for 20 minutes at room temperature, followed by 5 washes with 1% acetic acid and a 2-hour drying period. Each well of a 96-well plate received 0.2 mL of 10 mM unbuffered tris base and was agitated for 10 minutes. Total protein was assessed using a BioTek (Winooski, Vt.) Synergy 2 microplate reader (565 nm-690 nm background). Live cell imaging analysis was completed using the Essen BioScience IncuCyte Zoom (Ann Arbor, Mich.) and analyzed using the IncuCyte associated software.
# As a corollary, it was determined if growth of BCCs influenced by CD146^neg fibroblasts were sensitive to EGFR inhibition. […]
structure (smiles),measurement,setting,value
COc1cc2ncnc(Nc3ccc(F)c(Cl)c3)c2cc1OCCCN1CCOCC1 [gefitinib],reduction of proliferation,"MCF-7 cultured with CD146neg fibroblasts, 10 μM, 72 hours post-treatment, 2.5% FBS",60%
same,proliferation response (FIG. 5D legend),"MCF-7 with CD146neg fibroblasts, live cell imaging",significantly decreased proliferation
same,effect on proliferation,"MCF-7 with CD146pos (HS27a) fibroblasts, 10 μM",not significantly changed; also recorded: unchanged

# Entries after “also recorded” stand apart in the source; their conditions may differ.
